# Source: ChEMBL document CHEMBL1770112 (Eur J Med Chem, 2011)
# Protein sequences, listed by entry. Tags and fused reporters are not part of them.
# UniProt Q01827, whole entry: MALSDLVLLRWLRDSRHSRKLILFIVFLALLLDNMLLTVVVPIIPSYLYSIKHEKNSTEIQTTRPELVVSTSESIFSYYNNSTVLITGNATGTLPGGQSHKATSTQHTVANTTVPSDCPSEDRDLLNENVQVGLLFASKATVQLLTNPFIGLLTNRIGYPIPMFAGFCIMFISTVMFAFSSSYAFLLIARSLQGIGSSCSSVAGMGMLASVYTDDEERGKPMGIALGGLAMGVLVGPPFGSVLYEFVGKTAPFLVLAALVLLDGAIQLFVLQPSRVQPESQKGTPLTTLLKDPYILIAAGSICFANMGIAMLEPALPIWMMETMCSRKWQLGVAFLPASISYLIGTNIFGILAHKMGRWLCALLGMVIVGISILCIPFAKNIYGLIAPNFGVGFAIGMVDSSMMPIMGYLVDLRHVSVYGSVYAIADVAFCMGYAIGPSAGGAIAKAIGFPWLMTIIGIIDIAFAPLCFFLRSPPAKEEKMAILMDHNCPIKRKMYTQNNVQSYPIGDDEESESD
# Biological target: Synaptic vesicular amine transporter (Rattus norvegicus, UniProt Q01827)
# Assay: Displacement of [3H]DHTBZ from Sprague-Dawley rat striatum VMAT2 after 1 hr by liquid scintillation counting
smiles,measurement,value
COc1cc2c(cc1OC)[C@H]1CC(=O)[C@H](CC(C)C)CN1CC2,Ki,4.47 nM
